From paper PMC3142112, “Rationally Designed Turn Promoting Mutation in the Amyloid-β Peptide Sequence Stabilizes Oligomers in Solution” (PLoS ONE, 2011) come the findings set out here.

For the data set the following is noted: pH 7.2.

≈ marks a conversion by molar mass, not a printed value.

With `CCCC[C@H](NC(=O)[C@H](CC(C)C)NC(=O)CNC(=O)[C@@H](NC(=O)[C@@H](NC(=O)[C@H](C)NC(=O)CNC(=O)[C@H](CCCCN)NC(=O)[C@H](CC(N)=O)NC(=O)[C@H](CO)NC(=O)CNC(=O)[C@@H](NC(=O)[C@H](CC(=O)O)NC(=O)[C@H](CCC(=O)O)NC(=O)[C@H](C)NC(=O)[C@H](Cc1ccccc1)NC(=O)[C@H](Cc1ccccc1)NC(=O)[C@@H](NC(=O)[C@H](CC(C)C)NC(=O)[C@H](CCCCN)NC(=O)[C@H](CCC(N)=O)NC(=O)[C@H](Cc1c[nH]cn1)NC(=O)[C@H](Cc1c[nH]cn1)NC(=O)[C@@H](NC(=O)[C@H](CCC(=O)O)NC(=O)[C@H](Cc1ccc(O)cc1)NC(=O)CNC(=O)[C@H](CO)NC(=O)[C@H](CC(=O)O)NC(=O)[C@H](Cc1c[nH]cn1)NC(=O)[C@H](CCCNC(=N)N)NC(=O)[C@H](Cc1ccccc1)NC(=O)[C@H](CCC(=O)O)NC(=O)[C@H](C)NC(=O)[C@@H](N)CC(=O)O)C(C)C)C(C)C)C(C)C)[C@@H](C)CC)[C@@H](C)CC)C(=O)N[C@H](C(=O)N1CCC[C@@H]1C(=O)NCC(=O)N[C@H](C(=O)N[C@H](C(=O)N[C@H](C(=O)N[C@@H](C)C(=O)O)[C@@H](C)CC)C(C)C)C(C)C)C(C)C` [Aβ42Nle35p37], the “solubility when HFIP film was dissolved” value is approximately 1000 µg/mL (≈ 220 µM).
